Non-standard residues stand in square brackets, D forms with d. Residues, ends and D or L forms follow the SMILES beside them. ξ: configuration not given here. ξAbu = CCC(N)C(=O)O
Assays:
[1] = target: T1, BIR3 domain of XIAP (Homo sapiens, UniProt P98170); experiment: Fluorescence displacement assay: AVPC-badan displaced from BIR3 by test tetrapeptide (typical assay, Tables 1 and 2); assay type: binding, mammalian; details: for binding to BIR3 (in words): ability to displace the AVP-dye; for Krelative: relative equilibrium constant for displacement of AVP-dye, larger = greater affinity for BIR3
T1 construct: Recombinant XIAP-BIR3 (residues 238-358); GST (N, cleaved yes); made in house; host or cells: E. coli
Text: The ability to quickly assay small molecules for their effectiveness in disrupting protein-protein interactions is critical to the development of viable drug candidates. One aspect of the present invention comprises an assay to test the binding affinity of a library of tetrapeptide molecules for the BIR3 domain of an inhibitor of apoptosis protein (LAP), particularly the mammalian XIAP. The assay is based on a detectable label, preferably a fluorogenic dye molecule. In preferred embodiments, the fluorophore is attached to a tripeptide, AVP, whose sequence matches the N-terminal three residues of Smac. The general structure of this molecule, therefore, is AVP[X], wherein X is the fluorophore. The molecule is referred to herein as an “AVP-dye”. The AVP-dye packs into the groove of the BIR3, causing a large shift in emission maximum and intensity when the environment of the dye changes from water to the hydrophobic pocket of the protein. If a molecule (e.g. the native Smac protein or a tetrapeptide mimic) displaces the dye, then emission will shift back to the spectrum observed in water. Since the emission intensity is related to the binding of the tetrapeptide, the intensity can be used to estimate the equilibrium constant, K, for displacement of the AVP-dye by the tetrapeptide. The larger the equilibrium constant, the greater affinity the tetrapeptide has for the BIR3.
The aforementioned AVP-dye is used in an assay of test compounds that may, like the Smac tetrapeptide AVPI, bind to the BIR3 domain of XIAP, thereby relieving XIAP-mediated suppression of apoptosis. This is a high-throughput, cell-free assay, that is assembled as follows. A protein comprising the BIR3 domain of an IAP is placed in an assay medium comprising a suitable buffer, as described above. Preferably, this is a recombinant protein comprising the BIR3 domain, but a full IAP protein also may be used. An aliquot of the AVP-dye is added to the reaction mixture, in the presence of the test compound. Controls comprise the BIR3 and the dye in the absence of the test compound and, optionally, BIR3 and the dye in the presence of the naturally occurring tetrapeptide, AVPI. […] Alternatively, a emission spectrum is measured at the selected excitation wavelength. In one type of measurement, the test compound is added and an emission spectrum is measured by scanning from, e.g., 460-480 nm. In another type of measurement, the emission intensity at a particular wavelength, e.g., 470 nm, is measured. […] Thus, the binding affinity of the test compound may be calculated as a function of its ability to displace the dye from the BIR3 domain, according to the following calculation: [formula]
Stock solution of badan, BIR3, and buffer were mixed: 2.5 ml of badan, 1.75 ml BIR3, and 15.25 ml of buffer were mixed in a glass vial which had been chilled to 4° C. Added 390 μL of the stock solution to 50 wells in the pre-chilled 96 well plate (wells A1-E2).
Stock solution of badan and buffer were mixed: 150 μL badan and 1020 μL of buffer were mixed in a small glass vial (also chilled) and added to 3 wells on the plate in 390 μL aliquots (F1-F3).
The 96 well plate was stored over ice in an insulated bucket while the emission spectra of the samples were taken. Fifty μL of the appropriate test solution (or water, for the control experiments) was added with a micropipet, the solution mixed with a Pasteur pipet before adding the sample to the fluorescence cuvette. While one sample was being scanned, the cuvette from the previous scan was washed with EtOH and then next sample was prepared.

Amino acid sequences for entries named in this document (tags omitted). Residues count along the entry.
UniProt P98170, 238-358: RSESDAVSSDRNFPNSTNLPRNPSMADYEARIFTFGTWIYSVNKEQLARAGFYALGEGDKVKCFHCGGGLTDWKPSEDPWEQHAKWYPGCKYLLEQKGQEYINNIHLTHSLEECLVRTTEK

[2] = target: T2, BIR3 domain of XIAP (recombinant XIAP-BIR3, residues 238-358) (Homo sapiens, UniProt P98170); experiment: Fluorescence-based competition assay of tetrapeptide libraries (Example 1); assay type: binding, mammalian; details: discussion of Table 4
T2 construct: Recombinant XIAP-BIR3 (residues 238-358); GST (N, cleaved yes); made in house; host or cells: E. coli
Text: Expression and Purification of BIR3. […] The soluble fraction of the GST-BIR3 in the E. coli lysate was purified over a glutathione sepharose column, and further purified by anion exchange chromatography (Mono-Q, Amersham Biosciences). The fusion protein was cleaved by thrombin, and the GST portion was removed by the glutathione sepharose column. The BIR3 protein was further purified over a gel filtration column (Superdex 30, Amersham Biosciences).
Fluorescence Experiments. Luminescence spectra were recorded using a Photon Technologies, Inc. fluorometer with a Xe arc lamp and a PMT detector. […] The buffer used in all of the fluorescence experiments was 50 mM potassium phosphate, 100 mM NaCl, 2 mM 1,4-dithio-DL-threitol (DTT), pH 7.
Assay of Tetrapeptide Libraries. The samples were prepared in a 96 well plate lined with glass tubes, to prevent adsorption of the dye to plastic. The plate was stored on ice in the dark between measurements. […] 390 μL of this stock solution were added to 50 wells of the 96 well plate. 50 μL of the test tetrapeptide solutions were added and mixed immediately prior to taking the emission spectra. The final solutions were 5 μM in both badan and BIR3, and approximately 20-30 μM in the tetrapeptide solutions. […] 50 μL of water was added to these wells, again as controls, to determine the intensity of the unbound dye.
The binding of various tetrapeptide mimics to the BIR3 domain of XIAP was determined using a fluorescence-based competition assay. The assay is based on an environment-sensitive fluorogenic dye molecule, badan. Badan is a dye whose sensitivity to environmental changes has previously been used to probe protein binding interactions. […] As the dye is displaced from the binding pocket by the test molecule, the emission shifts back towards the aquated spectrum.

[3] = target: Recombinant XIAP-BIR3 (residues 238-358) (UniProt P98170); experiment: fluorescence competition, displacement of AVPC-badan from BIR3

Compound	binding to BIR3 (in words) [1]	binding affinity for BIR3 (in words) [2]	Krelative [1]	Kd [3]
AIAY: tetrapeptide, SEQ ID NO:17; sequence of a Drosophila homolog of Smac (Synthetic tetrapeptide sequence)	bound strongly			
CC(C)[C@H](NC(=O)[C@H](C)N)C(=O)N1CCC[C@H]1C(=O)N[C@@H](Cc1ccc(O)cc1)C(N)=O [AVPY] (H-AVPY-NH2; N-terminus and C-terminus assumed)	binding at a strength equivalent to that of the naturally-occurring Smac peptide	binding affinity slightly greater than the natural analog	2.5442	
CC[C@H](C)[C@H](NC(=O)[C@@H]1CCCN1C(=O)[C@H](Cc1c[nH]cn1)NC(=O)[C@H](C)N)C(N)=O [AHPI] (H-AHPI-NH2; N-terminus and C-terminus assumed)		high affinity	2.2917	
CCC(N)C(=O)N[C@H](C(=O)N1CCC[C@H]1C(=O)N[C@H](C(N)=O)[C@@H](C)CC)C(C)C (some centres unmarked) [AbuVPI] (H-[ξAbu]VPI-NH2; N-terminus and C-terminus assumed)			3.0455	
CC[C@H](C)[C@H](NC(=O)[C@@H]1CCCN1C(=O)[C@@H](NC(=O)CN)C(C)C)C(N)=O [GVPI]		greatly diminished		
CC[C@H](C)[C@H](NC(=O)[C@@H]1CCCN1C(=O)[C@@H](NC(=O)[C@@H](N)CO)C(C)C)C(N)=O [SVPI]		diminished binder		
CC(C)[C@H](NC(=O)[C@H](C)N)C(=O)N1CCC[C@H]1C(=O)N[C@@H](Cc1c[nH]c2ccccc12)C(N)=O [AVPW] (H-AVPW-NH2; N-terminus and C-terminus assumed)	binding at a strength equivalent to that of the naturally-occurring Smac peptide	closely followed	23.1330	
AbuVPI (peptide)				240 nM
CC[C@H](C)[C@H](NC(=O)[C@@H]1CCCN1C(=O)[C@H](CCCNC(=N)N)NC(=O)[C@H](C)N)C(N)=O [ARPI] (H-ARPI-NH2; N-terminus and C-terminus assumed)	strong binding	high affinity	4.3126	
CC(C)[C@H](NC(=O)[C@H](C)N)C(=O)N[C@@H](C)C(=O)N[C@@H](Cc1ccccc1)C(N)=O [AVAF]	bound strongly	diminished by greater than a factor of ten relative to that observed for the AVPF		
CC(C)[C@H](NC(=O)[C@H](C)N)C(=O)N1CCC[C@H]1C(=O)N[C@@H](CCCCN)C(N)=O [AVPK]	bound BIR3 only weakly			
CC(C)[C@H](NC(=O)[C@H](C)N)C(=O)N1CCC[C@H]1C(=O)N[C@@H](CS)C(N)=O [AVPC, Ala-Val-Pro-Cys-NH2]		greater than that of the AVPC-badan		

— US20050176649A1, “Iap binding peptides and assays for identifying compounds that bind iap” (priority 2001, published 2005)
